The source made the active and inactive calls.
What was measured:
[1] = biological target: T1, Bile acid receptor (Homo sapiens) (UniProt Q96RI1); experiment: Agonist activity at GST-tagged FXR ligand binding domain (unknown origin) at 10 uM LanthaScreen TR-FRET Coactivator assay
T1 sequence (whole entry): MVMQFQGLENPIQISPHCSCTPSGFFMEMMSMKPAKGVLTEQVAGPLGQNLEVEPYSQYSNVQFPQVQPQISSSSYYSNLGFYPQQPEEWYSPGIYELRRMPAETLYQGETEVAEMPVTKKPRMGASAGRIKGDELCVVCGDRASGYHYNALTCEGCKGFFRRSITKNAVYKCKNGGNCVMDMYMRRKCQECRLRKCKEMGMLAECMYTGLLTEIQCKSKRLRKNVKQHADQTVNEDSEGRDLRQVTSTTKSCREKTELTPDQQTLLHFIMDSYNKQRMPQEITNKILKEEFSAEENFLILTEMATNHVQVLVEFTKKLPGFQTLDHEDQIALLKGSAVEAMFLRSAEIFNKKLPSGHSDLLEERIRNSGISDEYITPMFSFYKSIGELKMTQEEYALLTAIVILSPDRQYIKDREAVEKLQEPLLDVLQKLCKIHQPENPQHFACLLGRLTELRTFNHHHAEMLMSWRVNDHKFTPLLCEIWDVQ

By UniProt entry, the sequences of proteins in these tests, tags left out.
UniProt P55055, whole entry: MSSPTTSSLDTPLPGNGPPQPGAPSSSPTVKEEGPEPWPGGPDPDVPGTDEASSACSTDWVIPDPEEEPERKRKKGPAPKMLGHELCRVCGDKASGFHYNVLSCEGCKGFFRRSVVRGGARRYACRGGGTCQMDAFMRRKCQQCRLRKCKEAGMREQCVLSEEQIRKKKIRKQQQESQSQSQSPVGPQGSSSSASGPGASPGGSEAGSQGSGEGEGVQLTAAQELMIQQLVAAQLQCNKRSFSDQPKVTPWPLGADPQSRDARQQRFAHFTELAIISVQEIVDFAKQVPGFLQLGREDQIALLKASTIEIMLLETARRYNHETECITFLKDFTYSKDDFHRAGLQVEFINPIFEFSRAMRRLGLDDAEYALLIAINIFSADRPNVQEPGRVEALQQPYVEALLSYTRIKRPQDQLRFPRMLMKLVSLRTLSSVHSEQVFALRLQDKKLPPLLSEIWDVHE

[2] = biological target: Oxysterols receptor LXR-beta (Homo sapiens) (UniProt P55055); experiment: Agonist activity at GST-tagged LXR-beta ligand binding domain (unknown origin) at 10 uM LanthaScreen TR-FRET Coactivator assay
[3] = biological target: T2, Peroxisome proliferator-activated receptor alpha (Homo sapiens) (UniProt Q07869); experiment: Displacement of fluormone pan-PPARgreen from GST-tagged human PPARalpha ligand binding domain at 10 uM by LanthaScreen TR-FRET competitive binding assay
T2 sequence (whole entry): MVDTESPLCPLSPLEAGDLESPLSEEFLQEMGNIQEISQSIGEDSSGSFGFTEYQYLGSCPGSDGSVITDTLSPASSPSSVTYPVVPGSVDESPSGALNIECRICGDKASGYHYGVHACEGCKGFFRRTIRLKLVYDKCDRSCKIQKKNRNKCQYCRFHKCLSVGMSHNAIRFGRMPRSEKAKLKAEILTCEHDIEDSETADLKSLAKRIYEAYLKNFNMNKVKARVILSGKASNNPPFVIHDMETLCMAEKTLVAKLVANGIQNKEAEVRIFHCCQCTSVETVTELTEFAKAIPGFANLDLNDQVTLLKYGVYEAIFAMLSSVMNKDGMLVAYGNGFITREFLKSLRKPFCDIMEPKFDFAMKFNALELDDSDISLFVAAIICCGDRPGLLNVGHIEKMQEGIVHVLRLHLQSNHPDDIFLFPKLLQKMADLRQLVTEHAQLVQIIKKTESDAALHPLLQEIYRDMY

[4] = biological target: T3, Peroxisome proliferator-activated receptor delta (Homo sapiens) (UniProt Q03181); experiment: Displacement of fluormone pan-PPARgreen from GST-tagged human PPARdelta ligand binding domain at 10 uM by LanthaScreen TR-FRET competitive binding assay
T3 sequence (whole entry): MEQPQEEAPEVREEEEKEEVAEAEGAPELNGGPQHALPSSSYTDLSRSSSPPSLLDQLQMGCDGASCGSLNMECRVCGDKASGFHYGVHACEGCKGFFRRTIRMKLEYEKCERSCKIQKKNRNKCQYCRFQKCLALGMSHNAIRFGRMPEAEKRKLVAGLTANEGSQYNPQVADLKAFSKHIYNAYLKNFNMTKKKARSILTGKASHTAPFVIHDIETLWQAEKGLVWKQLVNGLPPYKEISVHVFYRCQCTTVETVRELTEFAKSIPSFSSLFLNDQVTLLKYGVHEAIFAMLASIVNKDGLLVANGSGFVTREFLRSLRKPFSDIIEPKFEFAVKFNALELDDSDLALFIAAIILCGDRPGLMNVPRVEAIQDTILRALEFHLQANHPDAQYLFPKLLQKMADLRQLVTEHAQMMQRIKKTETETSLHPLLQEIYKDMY

Measured: Activity

COc1c(CC=C(C)C)c(=O)[nH]c2c(OC)c(O)ccc12
inactive: [1] | [2] | [3] | [4]
